Wnt bcat act – Wnt/beta-catenin pathway activation; Wnt/beta-catenin reporter cell assay, activator, plate reader; activation, % at 9.35 µM; 300,000 tested, 1.2% active; in the data active means activation above about 30%, passing the limit was not always enough;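 further: 0% = neutral control wells and 100% = positive control wells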
MITF act – increases MITF-driven TRPM1 promoter luciferase signal; AID 588334; 300,000 tested, 0.75% active; activation, % at 12.5 µM; SK-MEL-5 TRPM1-promoter luciferase, 24 h; % of positive control, neutral wells = 0;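 active means mean activation of at least 80% with every replicate also reaching 80%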;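 further: 0% = neutral control wells and 100% = parthenolide positive control wells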
esBAF inh – blocks esBAF chromatin remodeling in mouse ES cells; Bmi1-luciferase knock-in reporter, 24 h; 100% = twice the neutral-well signal; reporter increase, % at 12.5 µM; 350,000 tested, 2% active; in the data active means activation above about 40%;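 further: 0% = median of the plate's neutral control wells and 100% = double that signal; a rise in the Bmi1 reporter signal indicates esBAF inhibition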
PglD inh – PglD (C. jejuni) enzyme inhibition; purified PglD enzyme, DTNB colorimetric CoA detection; inhibition, % at 12.5 µM; 360,000 tested, 0.098% active; in the data active means inhibition above about 16%, passing the limit was not always enough
miR122 inh – blocks miR-122 activity in Huh7 sensor cells. 340,000 tested, 0.3% active. activation (reporter increase), % at 12.5 µM. Huh7 miR-122 Renilla luciferase sensor, 48 h; neutral wells = 0, positive control = 100;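 active means mean replicate activation score at least 90 and every replicate individually at or above 90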;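 further: higher luciferase means less miR-122 activity so hits act as miR-122 inhibitors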
UUG fidelity – alters start codon recognition fidelity in yeast | S. cerevisiae UUG-firefly luciferase reporter, luminescence/redox ratio | activity score, % at 18.7 µM | hit rate 0.13% among 350,000 | AID 602363;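 active means replicate mean at a twofold rise or more, about +100% in these data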;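 further: firefly luciferase made from a UUG start codon reports start codon fidelity; reporter light over untreated wells divided by growth signal over untreated wells; some hits fall short of that in this replicate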
Starred values were filed as active, the others as inactive; . = no result given; [ ] = dose if it differs, or a comment. Shown are actives, neighbours in structure and some others; about 2.8% of the full set was active somewhere.

SMILES,MITF act,UUG fidelity,esBAF inh,Wnt bcat act,PglD inh,miR122 inh
C[C@@H]1CN([C@H](C)CO)C(=O)c2cc(NS(=O)(=O)c3ccc(Cl)cc3)ccc2O[C@@H](C)CCCCO[C@@H]1CN(C)C(=O)C1CCCCC1,.,-4,5,.,-4,19[16.7 µM]
Cc1[nH]c(=O)c(C(=O)/C=C/c2ccccc2F)c2c1CCCC2,-84,-10,43*,-5,4,182*
Cc1cc(C)c(C(=O)/C=C/c2cccc3ccccc23)c(=O)[nH]1,-87,.,.,-6,.,.
O=C(CSc1ccc(F)cc1)Nc1ccc(C2SCCS2)cc1,.,-23,45*,9,6,8
CC1CCCN(c2sc(S(C)(=O)=O)nc2S(=O)(=O)c2ccc(Cl)cc2)C1 (stereo not drawn),-13,-12,5,-2,-6,-4
CC1CCCN(c2nc3ccsc3c(=O)s2)C1 (stereo not drawn),73,-22,.,53*,5,4
Cc1cccc2nc(=S)n(C(=O)c3ccco3)n12,58,-7,75*,.,-1,-3
O=C(c1ccco1)n1c(=S)nc2ccccn21,26,.,.,.,.,.
Cc1cccc(-c2ncc(S(=O)(=O)C(C)(C)C)c(N)n2)c1,94*,.,68*,35*,.,.
Cc1cc(C(=O)Nc2cccc3c2O[C@H](CN(C)S(=O)(=O)c2ccccc2)[C@H](C)CN([C@H](C)CO)C3=O)n(C)n1,.,24,-12,.,4,45[16.7 µM]
CO[C@@H]1CN(C)C(=O)c2cc(NS(C)(=O)=O)ccc2OC[C@H](C)N(CC2CCCCC2)C[C@H]1C,.,4,4,.,-4,-5[16.7 µM]
COc1ccc(NC(=O)c2ccc(Cn3cc(Cl)cn3)cc2)cc1,17,-9,8,0,-1,0
O=C(Nc1cnn(Cc2c(Cl)cccc2Cl)c1)c1ccc([N+](=O)[O-])cc1,29,-13,73*,.,.,-2
CN(C)c1ccc(NC(=O)c2ccc(Cn3cc([N+](=O)[O-])cn3)cc2)cc1,44,-11,57*,-1,5,-8
O=C(Nc1ccon1)c1ccc(N2CCCCC2)c([N+](=O)[O-])c1,91*,.,.,29,.,.
CC(=O)Nc1ccccc1C(F)(F)F,.,-9,.,2,4,-2
CC(O)CNCc1ccccc1C(F)(F)F (stereo not drawn),-1,-25,-2,41*,-5,2
C[C@@H]1CCCCO[C@H](CN(C)Cc2ccc(C(=O)O)cc2)[C@@H](C)CN([C@@H](C)CO)C(=O)c2cc(NC(=O)C3CCCCC3)ccc2O1,.,6,2,.,1,-1[16.7 µM]
CCOc1cc(C)c(C(C)C)cc1S(=O)(=O)N1CCN(C)CC1,-2,-12,-2,.,1,54
COc1cc(C)c(C(C)C)cc1S(=O)(=O)N1CCN(C)CC1,.,-18,1,-2,-4,149*
CCOc1ccc(N=C(/C(C(=O)C(=O)N2CCOCC2)=C(\O)c2ccccc2)c2ccccc2)cc1,87*,1,68*,10,-3,-9
CCOCCCNC(=O)c1ccc(/C=C2\Oc3ccccc3N(C)C2=O)cc1,20,-1,72*,2,4,.
CCOCCCNC(=O)c1ccc(Br)cc1,7,-12,23,15,2,2
C[C@@H]1CN([C@H](C)CO)C(=O)Cc2cc(NC(=O)NC3CCCCC3)ccc2O[C@H]1CN(C)Cc1ccc(Oc2ccccc2)cc1,.,-21,4,.,-1,5[16.7 µM]
Fc1cccc2sc(N3CCCC3)nc12,86*,.,.,14,.,.
CCNC(=O)[C@@H]1[C@@H](CO)[C@@H]2Cn3c(ccc(-c4ccc(F)cc4)c3=O)[C@H]1N2C,.,.,2,.,6,15[16.7 µM]
CCOC(=O)/C(N=Nc1ccc2c(c1)OCO2)=C(\C)O,115*,.,.,7,.,.
CC#CC(=O)N1CCCC(Cc2cccc(OC)c2)(C(=O)OCC)C1 (stereo not drawn),51,-8,59*,27,-7,-2
CCOC(=O)C1(Cc2cccc(OC)c2)CCCN(C(=O)CSC)C1 (stereo not drawn),.,-14,59*,10,-2,1
CCOC(=O)c1ccc(CNCc2ccccc2)cc1,51,.,.,-1,.,.
C#CCCc1cscc1/C=[N+](\[O-])c1ccc(C(=O)OCC)cc1,34,-14,62*,1,2,.
CCOC(=O)c1ccc(/[N+]([O-])=C/c2ccccc2)cc1,57,-6,53*,19,-7,-3

Complete entries from above. Order of values: MITF act | UUG fidelity | esBAF inh | Wnt bcat act | PglD inh | miR122 inh
Cc1cccc2nc(=S)n(C(=O)c3ccco3)n12 as listed: 58 | -7 | 75* | . | -1 | -3
C[C@@H]1CN([C@H](C)CO)C(=O)Cc2cc(NC(=O)NC3CCCCC3)ccc2O[C@H]1CN(C)Cc1ccc(Oc2ccccc2)cc1 as listed: . | -21 | 4 | . | -1 | 5[16.7 µM]
CC(O)CNCc1ccccc1C(F)(F)F (stereo not drawn) as listed: -1 | -25 | -2 | 41* | -5 | 2
C#CCCc1cscc1/C=[N+](\[O-])c1ccc(C(=O)OCC)cc1 as listed: 34 | -14 | 62* | 1 | 2 | .

Bioassay records: PubChem, Broad Institute
